{"source": "ChEMBL document CHEMBL2034867", "about": "“S-Farnesyl-Thiopropionic Acid (FTPA) Triazoles as Potent Inhibitors of Isoprenylcysteine Carboxyl Methyltransferase” (ACS Med Chem Lett, 2012)", "key": {"MEF [1]": {"tested_on": "MEF", "test": "Cytotoxicity against icmt-double mutant MEF cells after 5 days by MTT assay", "assay_type": "cell-based", "details": "Mus musculus, 120 h", "in_short": "(§1)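 MEFs from Icmt+/+ or Icmt–/– animals were seeded at 1000 cells/well in DMEM with 10% FBS for 24 h. Medium was then changed to DMEM with 5% FBS containing compound at various concentrations, or 0.1% DMSO. After 5 days, MTT (5 mg/mL) was added for 4 h at 37 °C. Medium was removed, formazan dissolved in DMSO, and absorbance read at 590 nm.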"}, "MEF [2]": {"tested_on": "MEF", "test": "Cytotoxicity against icmt-positive MEF cells after 5 days by MTT assay", "assay_type": "functional, cell-based", "details": "Mus musculus, 120 h", "in_short": "as §1"}}, "data": [{"compound": "CC(C)=CCC/C(C)=C/CC/C(C)=C/CSc1ccccc1C(=O)O", "note": "[SALIRASIB]", "values": [{"measurement": "IC50", "setting": "MEF [1]", "result": 14.3, "unit": "µM"}, {"measurement": "IC50", "setting": "MEF [2]", "result": 15.3, "unit": "µM"}]}]}
